The list shows a part of the results, in another mix than the full data. Results filed as inconclusive are left out. Some structures show a salt or complex split into parts, the way the source records it. Active and inactive are the calls of the source. Rule as the data show it: active = activation above about 80%; inconclusive = between about 30% and that limit; inactive = weaker than that.
Biological target: Transient receptor potential cation channel subfamily V member 1 (Homo sapiens) (UniProt Q8NER1)
Test: HTS Assay for Compounds that Act as Agonists of the Vanilloid Receptor 1; also: 0% is about no effect
Conditions: TRPV1-expressing cells, Fluo-8 calcium influx, agonist mode; at 8.33 µM; active compounds read high
Source text: The transient receptor potential ion channel, family V, number 1, (TRPV1) is one of the most important molecular transducers of painful stimuli and a potential target for analgesic drug development. Although recent clinical trials with orthosteric antagonists have not produced a successful drug because of a hyperthermia side effect and their tendency to block thermal noxious pain, this ion channel is undeniably well placed in the pain pathway, and the idea of blocking pain signals before they enter the CNS is an excellent concept and of proven efficacy when TRPV1 agonists are used. We propose a new approach involving allosteric modulation to impose an activity-dependent constraint within the context of inflammation and tissue damage that would alter the responsiveness of the channel in a way that an orthosteric vanilloid antagonist cannot achieve. We believe that the allosteric modulator approach has not been explored for this target. The main goal of this proposal is to identify additional, new, potent allosteric modulators of TRPV1 that can be used to investigate TRPV1 function. Our recent report provides evidence of proof of concept, but the compounds are just at the edge of utility in terms of potency. […] The question of whether they can be used as analgesic agents is complex, but if suitable compounds are identified then testing for analgesic properties will be conducted. NIH Chemical Genomics Center [NCGC] NIH Molecular Libraries Probe Centers Network [MLPCN] MLPCN Grant: MH089480-1A1 Assay Submitter (PI): Michael Iadarola, National Institute of Dental and Cranofacial Research
Upon TRPV1 activation in TRPV1 cells, the channel opens and extracellular cations flow through the channel into the cytosol. A calcium binding dye (Fluo-8) becomes fluorescent when bound to calcium. This dye is pre-loaded into cells and is used as a marker for calcium influx. The amount of accumulated calcium is precisely quantified using the FDSS kinetic reader and the calcium dye. For the HTS assay, freshly prepared cells are plated at a density of 2000/well in 3 ul medium in 1536-well plates and cultured overnight at 35.5C. Cells will be loaded with 1 ul of the homogeneous calcium dye (ABD Bioquest) at room temperature for 40 to 90 minutes. Plates will be loaded into the FDSS kinetic reader and a 1 sec / cycle for 10 second baseline signal will be measured. Compound library will then be added with a pintool at 23 nl and measured kinetically for 3 minutes. This portion of the read is considered the agonist portion of the screen. Following the 3 minutes of incubation, an on board pipettor will deliver 1 ul of capsaicin for a final concentration equal to the EC20. Signal will be measured kinetically for an additional 2 minutes. This portion of the read is considered the allosteric enhancer portion of the screen. The FDSS reader has a standard filter set capable of measuring calcium bound Fluo-8 (ex=480 and em=520 nm).

Chains of the proteins cited; added tags and fusions are not shown.
UniProt Q8NER1, whole entry: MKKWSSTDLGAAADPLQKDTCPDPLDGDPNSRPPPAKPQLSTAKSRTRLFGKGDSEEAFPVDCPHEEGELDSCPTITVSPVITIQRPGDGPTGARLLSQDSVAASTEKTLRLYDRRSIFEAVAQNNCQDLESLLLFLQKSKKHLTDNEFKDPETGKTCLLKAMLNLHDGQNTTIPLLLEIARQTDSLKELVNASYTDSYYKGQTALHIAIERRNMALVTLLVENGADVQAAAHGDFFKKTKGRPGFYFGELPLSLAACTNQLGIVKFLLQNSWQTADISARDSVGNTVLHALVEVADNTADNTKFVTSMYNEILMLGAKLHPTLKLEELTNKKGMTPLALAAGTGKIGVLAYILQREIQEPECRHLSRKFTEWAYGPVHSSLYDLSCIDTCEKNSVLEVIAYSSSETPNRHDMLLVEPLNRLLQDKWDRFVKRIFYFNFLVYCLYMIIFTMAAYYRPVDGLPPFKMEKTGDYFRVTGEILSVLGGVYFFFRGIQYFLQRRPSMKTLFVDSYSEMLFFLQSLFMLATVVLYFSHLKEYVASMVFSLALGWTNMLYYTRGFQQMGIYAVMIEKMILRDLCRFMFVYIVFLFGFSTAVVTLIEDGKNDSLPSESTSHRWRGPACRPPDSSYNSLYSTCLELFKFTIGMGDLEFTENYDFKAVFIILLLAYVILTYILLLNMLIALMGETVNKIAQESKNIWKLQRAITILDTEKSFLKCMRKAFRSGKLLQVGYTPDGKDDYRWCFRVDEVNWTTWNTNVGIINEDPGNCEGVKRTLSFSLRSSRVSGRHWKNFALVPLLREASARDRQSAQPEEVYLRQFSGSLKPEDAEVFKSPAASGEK

Structure (SMILES) | activation
CN(C)c1ccc(C(=O)NCC2(N3CCCCC3)CCCCC2)cc1 | inactive: 0.222%
O=C(NCC1(N2CCCCC2)CCCCC1)c1ccco1 | inactive: -4.86%
CCN1CCC(Nc2cccc(F)c2)CC1 | inactive: -4.38%
Fc1ccccc1NC1CCN(Cc2ccccc2)CC1 | inactive: -1.83%
Cc1ccc(C(=O)NCC2(N3CCCCC3)CCCCC2)o1 | inactive: -2.45%
COc1cc(OC)cc(C(=O)NCC2(N3CCCCC3)CCCCC2)c1 | inactive: -3.86%
CCCOc1ccc(C)cc1CN(CCCl)CCCl | inactive: 3.58%
CN1CCC(Nc2ccc(Cl)cc2)CC1 | inactive: 2.34%
CCC(CO)(C(=O)OC1CN2CCC1CC2)c1ccccc1 (stereo not given) | inactive: -0.656%
COc1cc(OC)cc(C(=O)NCC2(N3CCOCC3)CCCCC2)c1 | inactive: 11.2%
COc1cccc(C(=O)N(c2cc(C)cc(C)c2)C2CCN(C(=O)OC(C)(C)C)CC2)c1 | inactive: -5.69%
CCCOc1ccc(C(=O)NCC2(N(C)C)CCCCC2)cc1 | inactive: 0.647%
O=C(O)C1(Nc2ccccc2)CCN(Cc2ccccc2)CC1 | inactive: -1.17%
CC(C)(C)OC(=O)N1CCC(Nc2ccccc2)CC1 | inactive: 13.4%
CN1CCC(Nc2ccc(F)c(Cl)c2)CC1 | inactive: 7.21%
CCOc1ncccc1C(=O)NCC1(N2CCOCC2)CCCCC1 | inactive: 12.1%
O=C(O)c1cccc(Nc2c([N+](=O)[O-])cc([N+](=O)[O-])cc2[N+](=O)[O-])c1 | inactive: 3.12%
CCc1cc(C(=O)NCC2(N3CCCCC3)CCCCC2)sc1C | inactive: 6.6%
O=C(OC1CN2CCC1CC2)C1c2ccccc2C=Cc2ccccc21 (stereo not given) | inactive: -0.0497%
N/C(=N\O)c1c(N)no[n+]1[O-] | inactive: -1.07%
COc1ccc(C(=O)NCC2(N3CCOCC3)CCCCC2)cc1OC | inactive: 3.62%
O=C(NCC1(N2CCOCC2)CCCCC1)c1cc(Br)ccc1Cl | inactive: 24.6%
CCCN1CCC(Nc2cc(OC)cc(OC)c2)CC1 | inactive: 4.19%
c1ccc(CN2CCC(Nc3ccccc3)CC2)cc1 | inactive: 4.09%

Structure (SMILES) | activation
CN(C)C1(CNC(=O)c2cccc(C#N)c2)CCCCC1 | inactive: -1.98%
CCOC(=O)C(CC)C1=NC(C)(C)Cc2ccccc21.O=[N+]([O-])c1cc([N+](=O)[O-])c(O)c([N+](=O)[O-])c1 (stereo not given) | inactive: 1.16%
CC(C)(C)OC(=O)N1CCC(N(C(=O)c2ccccc2)c2ccc(Cl)cc2)CC1 | inactive: 18.5%
N#Cc1ccc(C(=O)NCC2(N3CCCCC3)CCCCC2)cc1 | inactive: -1.05%
CN1CCN(CCOC(=O)C(O)(c2ccccc2)c2ccccc2)CC1 | inactive: -2.55%
CC(C)c1ccc(C(=O)NCC2(N3CCOCC3)CCCCC2)cc1 | inactive: -5.33%
COc1ccc(NC2CCN(C(=O)OC(C)(C)C)CC2)cc1 | inactive: 4.29%
COc1cc(C(=O)NCC2(N3CCCCC3)CCCCC2)ccc1OC(F)F | inactive: -1.37%
O=C(NCC1(N2CCOCC2)CCCCC1)c1cc(=O)[nH]c2ccccc12 | inactive: 5.42%
O=C(NCC1(N2CCCCC2)CCCCC1)c1cccc(C(F)(F)F)c1 | inactive: 2.01%
O=[N+]([O-])c1cc([N+](=O)[O-])c(NCC2CCS(=O)(=O)C2)c([N+](=O)[O-])c1 (stereo not given) | inactive: 1.43%
O=C(NCC1(N2CCCCC2)CCCCC1)c1cccc([N+](=O)[O-])c1 | inactive: -0.284%
CSc1ccc(C(=O)NCC2(N3CCOCC3)CCCCC2)cc1 | inactive: 6.95%
N#CC1(Nc2ccccc2)CCN(CCc2ccccc2)CC1 | inactive: -4.45%
CCN1CCC(Nc2ccc(Cl)cc2)CC1 | inactive: 3.17%
O=C(NCC1(N2CCCCC2)CCCCC1)c1ccc(OC(F)F)cc1 | inactive: 3.68%
CCCOc1ccc(C(=O)NCC2(N(C)C)CCCCC2)cc1OC | inactive: -4.85%
COc1ccc2c(c1O)-c1c(O)c(OC)cc3c1[C@H](C2)[N+](C)(C)CC3.O=[N+]([O-])c1cc([N+](=O)[O-])c([O-])c([N+](=O)[O-])c1[O-] | inactive: -1.5%
O=C(NCC1(N2CCCCC2)CCCCC1)c1cncc(Br)c1 | inactive: 1.03%
O=C(OC1CN2CCC1CC2)c1ccc([N+](=O)[O-])cc1 (stereo not given) | inactive: 2.34%
COc1cc(OC)c(C(=O)NCC2(N(C)C)CCCCC2)cc1OC | inactive: -3.29%
O=[N+]([O-])c1cc([N+](=O)[O-])c(OC2CCCCC2O)c([N+](=O)[O-])c1 (stereo not given) | inactive: -0.53%
CN(C)c1cccc(C(=O)NCC2(N3CCCCC3)CCCCC2)c1 | inactive: 2.01%
COc1ccc(CN(CCCl)CCCl)cc1Cl | inactive: -3.56%

Structure (SMILES) | activation
CC(C)c1ccc(NC2CCN(C(=O)OC(C)(C)C)CC2)cc1 | inactive: 19.9%
CCOC(=O)N1CCC(Nc2ccc(OC)cc2)CC1 | inactive: 0.4%
O=C(NCC1(N2CCCCC2)CCCCC1)c1ccc(Cl)s1 | inactive: 7.46%
N#CC1(Nc2ccccc2)CCN(Cc2ccccc2)CC1 | inactive: -1.32%
O=C(OC1CN2CCC1CC2)C1c2ccccc2Oc2ccccc21 (stereo not given) | inactive: 1.01%
O=C(NCC1(N2CCOCC2)CCCCC1)c1cc2ccccc2o1 | inactive: 7.75%
Cc1cc(C)cc(N(C(=O)c2ccccc2)C2CCN(C(=O)OC(C)(C)C)CC2)c1 | inactive: 10.9%
O=C(NCC1(N2CCCCC2)CCCCC1)c1ccc(Cl)nc1 | inactive: 0.199%
CSc1ccccc1C(=O)NCC1(N2CCCCC2)CCCCC1 | inactive: 0.351%
O=C(NCC1(N2CCCCC2)CCCCC1)c1cccs1 | inactive: -1.79%
O=C(NCC1(N2CCCCC2)CCCCC1)c1ccc(=O)[nH]c1 | inactive: 0.0286%
CC(C)(C)OC(=O)N1CCC(N(C(=O)c2ccccc2)c2ccc(F)cc2)CC1 | inactive: -0.0266%
COc1ccc(C(=O)NCC2(N3CCCCC3)CCCCC2)c(OC)c1OC | inactive: 3.41%
COc1ccc(C(=O)NCC2(N3CCCCC3)CCCCC2)cc1 | inactive: -0.926%
Cc1ccc(OCC(C)C)c(CN(CCCl)CCCl)c1 | inactive: 16.2%
CCOC(=O)N1CCC(Nc2cccc(C)c2)CC1 | inactive: 19.2%
COc1cc(C(=O)NCC2(N(C)C)CCCCC2)ccc1OC(F)F | inactive: 1.12%
COc1ccc(NC2CCN(CCc3ccccc3)CC2)c(OC)c1 | inactive: -1.39%
CCOC(=O)N1CCC(Nc2ccc(F)cc2)CC1 | inactive: 6.87%
CCCCOc1ccc(C(=O)NCC2(N3CCOCC3)CCCCC2)cc1 | inactive: 12.9%
O=C(NCC1(N2CCCCC2)CCCCC1)c1ccc(F)cc1 | inactive: 2.8%
CCOc1ccc(C)cc1CN(CCCl)CCCl | inactive: 0.619%
